# Test results as given in PubChem BioAssay AID686978 (National Center for Advancing Translational Sciences (NCATS), 2013).
# Only a part is listed here, and it is no random draw. Results filed as inconclusive are left out. Active and inactive are the calls of the source. The call rests on the fitted dose curve; in most records, active means well fitted inhibition curve with a large enough effect; inconclusive means small, poorly fitted or top-dose-only effect; inactive means flat fitted curve, though single readings scatter.
# Experiment: qHTS for Inhibitors of human tyrosyl-DNA phosphodiesterase 1 (TDP1): qHTS in cells in absence of CPT; further: nearly all actives have a fitted effect of over 55% in size
# Conditions: DT40 Tdp1-/- hTDP1 cells, no CPT, ATP luminescence, 48 h
# On the % scale 0 is the no-effect control and ±100 the full control effect.
compound,measurement,setting,value
CCC(=O)N(c1ccccc1)C1(COC)CCN(CCn2nnn(CC)c2=O)CC1,"activity change, negative = growth inhibition",at 46.2 µM (top of the series),inactive: -20.7%
same,"activity change, negative = growth inhibition",at 92.5 µM (top of the series),inactive: -15.5%
